Assay results: US20200247889A1 (published 2020)

Protein sequences, listed by entry. Tags and fused reporters are not part of them. Residues count along the entry.
UniProt Q9NP99, 21-234: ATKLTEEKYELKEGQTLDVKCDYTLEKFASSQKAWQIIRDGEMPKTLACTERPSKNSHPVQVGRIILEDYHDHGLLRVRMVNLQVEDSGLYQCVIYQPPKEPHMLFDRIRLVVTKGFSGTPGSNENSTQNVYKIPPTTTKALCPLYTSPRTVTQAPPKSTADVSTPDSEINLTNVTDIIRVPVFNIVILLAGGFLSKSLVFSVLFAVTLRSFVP

Molecular target: T1, human TREM1 (human, UniProt Q9NP99 21-234)
T1 construct: whole, on cells; also called hTREM1
Test: flow cytometry on HEK293 cells over-expressing human TREM-1
Procedure: 100,000 HEK 293 parental or over-expressing human or cynomolgus TREM-1 were plated in 96 well plates and dead cells were stained with Zombie Near Infrared (Biolegend). Titrations of indicated unconjugated antibodies were incubated with these cells within a range of 0 ug/ml to 30 ug/ml in a 1:4 or 1:5 dilution range across 8 points. Dependent on their isotype (hIgG1 or mIgG2a), these primary unconjugated antibodies were detected with Alexa Fluor 647 conjugated anti-human Fcγ or anti-mouse Fcγ secondary antibodies (Jackson Immunoresearch). Alexa Fluor 647 signal was measured by flow cytometry (BD Fortessa X-14, BD Biosciences). EC50 values were calculated by curve fitting signal generated from antibodies binding to over-expressing cells over background fluorescence generated from HEK293 parental cells in Graphpad Prism (Graphpad Software).

binding result: binds
B1: Pi-8421 (antibody, V domains shown)
VH: EVQLVESGGGLVQPGGSLRLSCAASGFDISYSSIHWVRQAPGKGLEWVASIYSSYGSTYYADSVKGRFTISADTSKNTAYLQMNSLRAEDTAVYYCARYYYSHAGWYVSGYWPAIDYWGQGTLVTVSS
VL: DIQMTQSPSSLSASVGDRVTITCRASQSVSSAVAWYQQKPGKAPKLLIYSASSLYSGVPSRFSGSRSGTDFTLTISSLQPEDFATYYCQQSSYSLITFGQGTKVEIK
